Assays:
[1] = biological target: 26S proteasome (1 RP and 1 CP) (bovine (endogenous in heart tissue)); assay: mass photometry; purified bovine proteasomes, 50 nM, 25 mM BisTris, 50 mM KCl, 5 mM MgCl2, 20% glycerol, 4 mM ATP, 1 mM DTT, 4 °C; also with 50-500 mM NaCl for 2 h on ice
[2] = biological target: 30S proteasome (2 RP, 1 CP) (bovine (endogenous in heart tissue)); assay: as above

stoichiometry N [1]: 1 | stoichiometry N [2]: 1
Substance: adapter protein Ecm29 (natural protein)

— article PMC7156492
